Test results reported in PubChem BioAssay AID1851 (National Center for Advancing Translational Sciences (NCATS), 2009).
The entries are a selection whose mix differs from that of the whole data set. Inconclusive results are not listed. The source made the active and inactive calls. The call rests on the fitted dose curve; in most records, active means well fitted curve in the direction sought with a large enough effect; inconclusive means small, poorly fitted or top-dose-only effect, or effect the other way; inactive means no such curve, though single readings can be large or run the other way.

Protein sequences, listed by entry. Tags and fused reporters are not part of them.
UniProt P33261, whole entry, looked up: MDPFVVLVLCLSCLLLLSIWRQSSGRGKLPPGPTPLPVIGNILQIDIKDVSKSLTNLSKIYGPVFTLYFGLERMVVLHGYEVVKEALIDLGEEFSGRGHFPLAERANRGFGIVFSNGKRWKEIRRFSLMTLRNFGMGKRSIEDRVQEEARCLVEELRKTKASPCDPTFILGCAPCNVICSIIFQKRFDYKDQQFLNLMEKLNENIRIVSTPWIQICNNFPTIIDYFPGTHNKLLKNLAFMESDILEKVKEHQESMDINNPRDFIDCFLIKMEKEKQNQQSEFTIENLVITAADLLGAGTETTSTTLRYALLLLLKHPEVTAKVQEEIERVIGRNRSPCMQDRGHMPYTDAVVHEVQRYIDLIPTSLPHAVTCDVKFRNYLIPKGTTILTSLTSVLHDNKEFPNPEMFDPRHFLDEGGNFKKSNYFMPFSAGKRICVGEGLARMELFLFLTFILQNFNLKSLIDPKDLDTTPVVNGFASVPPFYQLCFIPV

target: Cytochrome P450 2C19 (Homo sapiens) (UniProt P33261); test: Cytochrome panel assay with activity outcomes; settings: recombinant CYP, pro-luciferin dealkylation, luminescence, p450-cyp2c19; at 57.1 µM (top of the series)
On the % scale 0 is the no-effect control and ±100 the full control effect.

| Compound | activity, negative = inhibition |
| --- | --- |
| O=c1[nH]c2ccccc2n1C1CCN(CCCC(c2ccc(F)cc2)c2ccc(F)cc2)CC1 | inactive: -26.9% |
